The values that follow are results of earlier work, collected in article PMC7216583, “Two old drugs, NVP-AEW541 and GSK-J4, repurposed against the Toxoplasma gondii RH strain” (Parasites & Vectors, 2020).

One series deals with Bcl-2. Details: method as in library vendor description. The following applies: ref library vendor description; cited from earlier work.
A further series concerns the target androgen receptor (AR). To be noted: read-out: Ki androgen receptor (AR); ref library vendor description; cited from earlier work.
In a further series the target is TS. The following applies: read-out: Ki TS; ref library vendor description; cited from earlier work.
Series [1] addresses intermediate-conductance Ca2+-activated K+ channel (IKCa1, KCa3.1). The following applies: read-out: Kd IKCa1 (KCa3.1); ref library vendor description; cited from earlier work.

A value given as a limit tells only on which side of the number the result lay.

A word on the Ki: it is the equilibrium dissociation constant of an inhibitor or competing ligand from its target. For the molecule `CC1(C)CCC(c2ccc(Cl)cc2)=C(CN2CCN(c3ccc(C(=O)NS(=O)(=O)c4ccc(N[C@H](CCN5CCOCC5)CSc5ccccc5)c(S(=O)(=O)C(F)(F)F)c4)cc3)CC2)C1` [ABT-263 (Navitoclax)], the Ki at Bcl-2 was not above 1 nM.
As to `CC(=O)Nc1ccc(OC[C@](C)(O)C(=O)Nc2ccc([N+](=O)[O-])c(C(F)(F)F)c2)cc1` [Andarine (GTX-007)], the Ki at androgen receptor (AR) was 4 nM.
Turning to `Nc1nc(=O)c2c(CCc3ccc(C(=O)N[C@H](CCC(=O)O)C(=O)O)cc3)c[nH]c2[nH]1` [Pemetrexed (Alimta)], the Ki on TS is 1.3 nM.
For orientation: Kd means the concentration at which binding is half-saturated. Regarding `Clc1ccccc1C(c1ccccc1)(c1ccccc1)n1cccn1` [TRAM-34], in series [1], the dissociation constant (Kd) is 20 nM.
